From US6787566B2, “Breakers of advanced glycation endproducts” (City of Hope, priority 1999, dated 2004) come the findings set out here.

Protein sequences, listed by entry. Tags and fused reporters are not part of them. Residues count along the entry.
UniProt P02454, 152-1207 limits assumed: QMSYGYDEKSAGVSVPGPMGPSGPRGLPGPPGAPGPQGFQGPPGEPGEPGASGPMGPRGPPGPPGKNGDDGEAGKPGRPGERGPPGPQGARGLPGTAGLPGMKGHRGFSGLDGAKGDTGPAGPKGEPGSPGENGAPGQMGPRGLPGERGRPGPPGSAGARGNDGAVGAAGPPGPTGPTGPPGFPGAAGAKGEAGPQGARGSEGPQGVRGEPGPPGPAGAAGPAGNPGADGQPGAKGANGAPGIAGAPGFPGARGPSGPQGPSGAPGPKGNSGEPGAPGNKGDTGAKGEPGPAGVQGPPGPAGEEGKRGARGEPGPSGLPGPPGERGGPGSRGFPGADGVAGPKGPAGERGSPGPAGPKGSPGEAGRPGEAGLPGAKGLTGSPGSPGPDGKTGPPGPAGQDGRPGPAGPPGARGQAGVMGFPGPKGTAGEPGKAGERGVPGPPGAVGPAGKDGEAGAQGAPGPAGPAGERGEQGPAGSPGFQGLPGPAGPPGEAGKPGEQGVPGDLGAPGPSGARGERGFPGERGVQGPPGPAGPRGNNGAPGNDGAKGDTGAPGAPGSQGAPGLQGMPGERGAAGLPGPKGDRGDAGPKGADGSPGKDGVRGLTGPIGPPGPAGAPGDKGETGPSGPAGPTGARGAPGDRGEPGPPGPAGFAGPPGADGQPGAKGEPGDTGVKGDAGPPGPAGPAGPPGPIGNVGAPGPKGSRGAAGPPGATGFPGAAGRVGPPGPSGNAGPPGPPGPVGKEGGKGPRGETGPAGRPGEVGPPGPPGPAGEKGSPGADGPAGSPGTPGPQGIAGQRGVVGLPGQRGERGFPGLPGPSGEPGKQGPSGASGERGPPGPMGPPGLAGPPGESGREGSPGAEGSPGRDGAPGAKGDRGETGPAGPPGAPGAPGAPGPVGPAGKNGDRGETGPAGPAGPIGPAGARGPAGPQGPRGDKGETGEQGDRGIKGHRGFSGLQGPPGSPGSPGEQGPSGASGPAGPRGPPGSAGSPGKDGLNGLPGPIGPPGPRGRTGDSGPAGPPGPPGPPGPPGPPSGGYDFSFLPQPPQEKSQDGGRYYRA
UniProt P02466, 86-1125 limits assumed: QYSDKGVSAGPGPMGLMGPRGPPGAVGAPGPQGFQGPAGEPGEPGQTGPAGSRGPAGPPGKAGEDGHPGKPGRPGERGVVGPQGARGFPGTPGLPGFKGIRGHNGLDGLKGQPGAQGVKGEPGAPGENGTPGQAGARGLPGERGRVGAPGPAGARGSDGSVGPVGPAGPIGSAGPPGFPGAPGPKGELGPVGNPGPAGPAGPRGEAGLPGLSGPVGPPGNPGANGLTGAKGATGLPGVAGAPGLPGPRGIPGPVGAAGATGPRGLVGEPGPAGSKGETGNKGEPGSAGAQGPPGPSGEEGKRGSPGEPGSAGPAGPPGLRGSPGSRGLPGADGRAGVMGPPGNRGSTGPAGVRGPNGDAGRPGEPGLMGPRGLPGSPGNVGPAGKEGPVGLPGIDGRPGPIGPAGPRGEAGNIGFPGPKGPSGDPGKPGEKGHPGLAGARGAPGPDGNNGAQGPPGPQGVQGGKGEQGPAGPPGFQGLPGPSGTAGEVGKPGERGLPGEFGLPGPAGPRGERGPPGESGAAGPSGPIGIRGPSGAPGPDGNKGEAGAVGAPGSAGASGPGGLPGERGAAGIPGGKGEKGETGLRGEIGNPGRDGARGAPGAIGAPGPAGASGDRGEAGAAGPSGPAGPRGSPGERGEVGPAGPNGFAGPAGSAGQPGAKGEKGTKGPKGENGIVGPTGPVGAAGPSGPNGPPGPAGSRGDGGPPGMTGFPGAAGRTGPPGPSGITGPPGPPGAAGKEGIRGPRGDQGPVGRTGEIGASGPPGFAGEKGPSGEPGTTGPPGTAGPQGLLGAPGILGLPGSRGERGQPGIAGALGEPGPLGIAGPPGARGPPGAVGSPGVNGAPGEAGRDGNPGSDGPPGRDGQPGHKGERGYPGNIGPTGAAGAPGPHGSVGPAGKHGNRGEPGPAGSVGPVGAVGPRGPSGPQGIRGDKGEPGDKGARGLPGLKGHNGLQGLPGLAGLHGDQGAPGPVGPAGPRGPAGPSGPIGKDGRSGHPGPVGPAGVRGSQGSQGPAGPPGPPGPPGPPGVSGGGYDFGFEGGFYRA

Assay [1] has as its target T1, AGE cross-links in tail tendon collagen of diabetic rats (Rattus norvegicus, UniProt P02454+P02466).
T1 construct: collagen was isolated from the tail tendon of diabetic and normal controls; from tissue; host or cells: tail tendon of streptozotocin-diabetic male Sprague-Dawley rats
Kind of assay: Papain digestibility assay, collagen-linked fluorescence. The assay is classed as biochemical. The note with it: relative to untreated collagen of diabetic rats.

The target in assay [2] is T1, AGE cross-links in tail tendon collagen of diabetic rats. Kind of assay: Total pepsin digestion assay, collagen-linked fluorescence. The assay is classed as biochemical. The settings on record: relative to untreated collagen of diabetic rats.

Turning to “1,4-benzene-bis[4-methyleneaminophenoxyisobutyric acid] [LR102]”, the figures for the “Papain digestion Assay (% decrease in fluorescence)” value in assay [1] (0.1 mM), in assay [1] (1.0 mM) and in assay [1] (10 mM) were 21.2%, 22.8% and 52.2%, respectively. Moreover, the “Pepsin Digestion Assay (% decrease in fluorescence)” value in assay [2] (0.1 mM) is given as 12.9%; in assay [2] (1.0 mM), 23.8%; in assay [2] (10 mM), 37.3%.
